According to BindingDB's records for doi:10.1111/j.1476-5381.1988.tb11723.x (Ciba-Geigy, 1988):

Target: Glutamate receptor ionotropic, NMDA 1 (Rattus norvegicus, UniProt P35439)

O=C(O)c1cc(=O)c2ccccc2[nH]1 [4-hydroxyquinoline-2-carboxylic acid]
Ki: > 10 µM
